US12492236B2, “Fusion proteins for the treatment of cardiometabolic diseases” (Shattuck Labs, Inc., priority 2022, dated 2025)

Tested on: HFD-fed mice (Male C57BL/6)
Test: longer-term obesity model in HFD-fed mice
Text: Briefly, mice (Male C57BL/6) were of approximately 13 weeks of age were housed 4 mice per cage. Following 2 weeks of acclimation, mice were introduced to 60% kcal HFD (Research Diets D12492). Cages were changed once, then changed once a week. Weekly body weights and non-fasted blood glucose were collected. […] The longer-term obesity model assesses a number of end points associated with obesity related type 2 diabetes (FIG. 6A).
Mice (Male C57BL/6) were of approximately 13 weeks of age were housed 4 mice per cage. Following 2 weeks of acclimatation, mice were introduced to 60% kcal HFD (Research Diets D12492). Cages were changed once, then changed once a week. Weekly body weights and non-fasted blood glucose were collected.
Mice were injected by tail vein with vehicle or the drugs on Day 0, Day 4, Day 7, Day 10, Day 14, and Day 18. Body weights were measured every 2 days. Change in body weight was calculated and plotted.
Cumulative food intake was measured between day 0 and 3, between day 4 and 7, between day 7 and day 11, and between day 11 and day 14, and represented as average daily food intake. […]
Blood glucose levels were measured on Days 0, 1, 10 and 15 and plotted. […]
To further analyze the changes in liver, histopathological analysis was conducted. Briefly, the liver tissue was stained with hematoxylin and eosin (H&E) and evaluated using standard techniques.

For tirzepatide [reference compound], the “clinical observations post dose” value was “moribund, lethargic, scruffy, and consumed significantly less food and water immediately post dose”.
